Assay results as given in patent publication US10456359B2, “Synergistic beverage composition” (Harsha Chigurupati, priority 2015, dated 2019).

Tests used:
[1] = test system: interleukin-12 (IL-12) from brain homogenate; assay: Hangover study, IL-12 from brain homogenate, alcohol 1 day; assay type: in vivo, Wistar albino rats; design: concentration or dose not given beside the values; details: 1 Day alcohol
[2] = test system: acetylcholinesterase activity of brain homogenate; details: Hangover study, 1 Day alcohol; ingredient amounts in mass concentration (%)

CC1(C(=O)O)CCC2(C)CCC3(C)C(=CC(=O)C4C5(C)CCC(OC6OC(C(=O)O)C(O)C(O)C6OC6OC(C(=O)O)C(O)C(O)C6O)C(C)(C)C5CCC43C)C2C1 (stereo not drawn) [0.3 GA, 18β-GA]
Brain IL12 Pro (Protection) [1]: 20.65%
ACHe Pro (Protection) [2]: 17.19%
